Reference: ChEMBL document CHEMBL3769327, “Emerging targets and new small molecule therapies in Parkinson's disease treatment” (Bioorg Med Chem, 2016)

Sequences of proteins named here, by UniProt entry; tags and fusion partners are left off.
UniProt P23975, whole entry: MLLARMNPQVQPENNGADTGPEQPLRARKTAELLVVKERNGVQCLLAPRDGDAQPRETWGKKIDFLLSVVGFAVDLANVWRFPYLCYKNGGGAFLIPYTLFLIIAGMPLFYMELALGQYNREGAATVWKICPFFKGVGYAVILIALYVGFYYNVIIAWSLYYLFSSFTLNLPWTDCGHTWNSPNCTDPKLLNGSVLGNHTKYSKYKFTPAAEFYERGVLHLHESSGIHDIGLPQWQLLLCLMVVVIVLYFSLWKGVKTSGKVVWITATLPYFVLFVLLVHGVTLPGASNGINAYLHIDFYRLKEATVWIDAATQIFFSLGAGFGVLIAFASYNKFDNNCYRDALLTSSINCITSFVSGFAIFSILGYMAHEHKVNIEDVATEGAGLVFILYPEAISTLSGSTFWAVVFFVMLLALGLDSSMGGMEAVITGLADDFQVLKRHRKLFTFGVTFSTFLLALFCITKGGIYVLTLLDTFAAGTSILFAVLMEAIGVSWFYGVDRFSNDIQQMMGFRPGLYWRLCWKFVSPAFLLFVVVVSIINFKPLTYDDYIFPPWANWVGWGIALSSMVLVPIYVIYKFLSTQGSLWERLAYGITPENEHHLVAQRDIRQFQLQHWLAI

Target: Sodium-dependent noradrenaline transporter (Homo sapiens, UniProt P23975)
Experiment: Inhibition of recombinant human norepinephrine transporter assessed as reduction in [3H]-NA reuptake

SMILES: CNC[C@]1(c2ccc3ccccc3c2)CC[C@@](C)(O)CC1
- IC50: 33 nM
